The test system of the test is form deprivation myopia guinea pigs. Nature of the test: Sorbinil and Zopolrestat in form deprivation myopia model, Example 9. The following applies: FD, subconjunctival injection 100 μl once daily for 2 weeks; Sorbinil 100 μM, Zopolrestat 1 mM.

Molecules are shown by their SMILES.

Turning to `O=C(O)Cc1nn(Cc2nc3cc(C(F)(F)F)ccc3s2)c(=O)c2ccccc12` [Zopolrestat], the “therapeutic effect on myopia” value is reported as “no therapeutic effect on myopia”.

The values above are taken from patent publication US20240216332A1, “METHOD AND PHARMACEUTICAL COMPOSITION FOR TREATING MYOPIA” (GRAND PHARMA (CHINA) CO., LTD., priority 2021, published 2024).
